Reference: PubChem BioAssay AID493244 (The Scripps Research Institute Molecular Screening Center, 2011)
Only a part is listed here, and it is no random draw. Some salts or complexes appear as unconnected parts, following the source record. Active and inactive are the calls of the source.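 Rule for the calls: active = inhibition above the mean inhibition of all tested compounds plus 3 SD (cut at about 17% in these data); inactive = the rest.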

The molecules below were run against Troponin I, cardiac muscle (Homo sapiens) + Troponin T, cardiac muscle (Homo sapiens) + Troponin C, slow skeletal and cardiac muscles (Homo sapiens) (UniProt P19429+P45379+P63316) (assay: cardiac RTF calcium sensitivity inhibitors, primary screen, biochemical, IANBD-TnC fluorescence, EC70 calcium (AID 493244;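 note: assay run at fixed EC70 calcium of 1.6 mM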)). Details: IANBD-labeled cardiac RTF, Ca2+ fluorescence; at 7.15 µM; stronger effect = higher value.

Row | Compound | inhibition
1 | CCc1ccc(OP(C)(=O)O)cc1 | inactive: 8.67%
2 | CP(=O)(Nc1ccccn1)Oc1ccccc1 (centres undefined) | inactive: -2.14%
3 | COc1ccccc1OP(C)(=O)Nc1ccc(C)cc1C (centres undefined) | inactive: -12%
4 | Cc1c(NP(C)(=O)Oc2ccc(C(C)C)cc2)c(=O)n(-c2ccccc2)n1C (centres undefined) | inactive: 5.65%
5 | O=[N+]([O-])c1cc([N+](=O)[O-])c(Nc2ccccn2)c([N+](=O)[O-])c1 | inactive: -9.92%
6 | CN(C)CCOC(=O)C(O)(c1ccccc1)C1CCCC1 (centres undefined) | inactive: -5.36%
7 | COc1ccc(OP(C)(=O)Nc2ccccn2)cc1 (centres undefined) | inactive: 4.19%
8 | COc1ccccc1OP(C)(=O)Nc1ccc(Br)cc1 (centres undefined) | inactive: 0.1%
9 | CCCCCCCCCCCCCCCC1C[N+](C)(C)CCOP(C)(=O)O1 (centres undefined) | inactive: 1.45%
10 | CP(=O)(Nc1ccc(Cl)cc1Cl)Oc1ccccc1 (centres undefined) | inactive: 16.2%
11 | CP(=O)(OCCOc1ccccc1)OCCOc1ccccc1 | inactive: -8.28%
12 | COc1ccc(OP(C)(=O)Nc2ccccc2Br)cc1 (centres undefined) | inactive: 3.83%
13 | COc1ccccc1OP(C)(=O)Nc1ccc(C)c(C)c1 (centres undefined) | inactive: 9.68%
14 | O=C1C(O)=C([N+](=O)[O-])C(=O)C(O)=C1[N+](=O)[O-] | inactive: 14.1%
15 | Cc1cc(C)cc(OP(C)(=O)Nc2cccc(C(F)(F)F)c2)c1 (centres undefined) | inactive: -0.41%
16 | CP(=O)(OC12CC3CC(CC(C3)C1)C2)OC12CC3CC(CC(C3)C1)C2 | inactive: 0.14%
17 | CCOC(=O)c1ccc(NP(C)(=O)Oc2ccc(Cl)cc2)cc1 (centres undefined) | inactive: 8.42%
18 | CN(C)C(=O)c1c([N+](=O)[O-])cc([N+](=O)[O-])cc1[N+](=O)[O-] | inactive: -3.93%
19 | CP(=O)(Nc1ccc(Cl)cc1)Oc1ccc(F)cc1 (centres undefined) | inactive: -10.7%
20 | COc1ccccc1OP(C)(=O)Nc1ccccc1Br (centres undefined) | inactive: -7.73%

Row | Compound | inhibition
21 | CC(C)(C)c1ccc(OP(C)(=O)O)cc1 | inactive: -6.71%
22 | CP(=O)(Oc1ccccc1)N1CCOC1=O (centres undefined) | inactive: -0.18%
23 | CCc1ccc(OP(C)(=O)Nc2cccnc2)cc1 (centres undefined) | inactive: -3.69%
24 | COc1ccccc1OP(C)(=O)Nc1c(C)n(C)n(-c2ccccc2)c1=O (centres undefined) | inactive: -17.7%
25 | O=C(OCCCN1CCCC1)C(O)(c1ccccc1)C1CCCCC1 (centres undefined) | inactive: 7.89%
26 | CCN(CC)CC(O)COC(=O)C(O)(c1ccccc1)C1CCCCC1 (centres undefined) | inactive: 5.69%
27 | COc1ccc(OP(C)(=O)Nc2ccc(Br)cc2)cc1 (centres undefined) | inactive: -8.38%
28 | Cc1ccccc1NP(C)(=O)Nc1ccccc1C | inactive: -1.63%
29 | CP(=O)(Nc1ccc2c(c1)OCCO2)Oc1ccccc1 (centres undefined) | inactive: -13.4%
30 | CCOP(C)(=S)SCC(=O)NC(C)(CC)C(=O)O (centres undefined) | inactive: -13.9%
31 | CP(=O)(Nc1ccc(SC(F)(F)F)cc1)Oc1ccc(F)cc1 (centres undefined) | inactive: 0.74%
32 | Cc1c(C(c2ccc3c(c2)OCO3)c2c(C)n(C)n(-c3ccccc3)c2=O)c(=O)n(-c2ccccc2)n1C.O=[N+]([O-])c1cc([N+](=O)[O-])c(O)c([N+](=O)[O-])c1 | inactive: -0.29%
33 | O=[N+]([O-])c1cc([N+](=O)[O-])c(NCC2CCS(=O)(=O)C2)c([N+](=O)[O-])c1 (centres undefined) | inactive: -5.24%
34 | Cc1cc(-c2cccc3ccccc23)c(C)cn1.O=[N+]([O-])c1cc([N+](=O)[O-])c(O)c([N+](=O)[O-])c1 | inactive: -6.28%
35 | O=[N+]([O-])c1ccc(OP2(=O)COCCO2)cc1 (centres undefined) | inactive: -0.69%
36 | COc1ccc(NP(C)(=O)Oc2ccccc2OC)cc1 (centres undefined) | inactive: -4.27%
37 | CN(C)CCOC(=O)C(O)(c1ccccc1)C1CCCCC1 (centres undefined) | inactive: 1.64%
38 | COc1ccc(OP(C)(=O)Nc2cccc(Br)c2)cc1 (centres undefined) | inactive: -9.31%
39 | CCCCCOc1ccc(NP(C)(=O)Oc2ccc(Cl)cc2Cl)cc1 (centres undefined) | inactive: -7.98%
40 | O=[N+]([O-])c1cc([N+](=O)[O-])c(OC2CCCCC2O)c([N+](=O)[O-])c1 (centres undefined) | inactive: -7.14%

Row | Compound | inhibition
41 | CP(=O)(Nc1ccccc1)Oc1ccc(F)cc1 (centres undefined) | inactive: -1.5%
42 | CCN(CC)CCCOC(=O)C(O)(c1ccccc1)C1CCCCC1 (centres undefined) | inactive: 3.4%
43 | Cc1c([N+](=O)[O-])cc([N+](=O)[O-])c(Br)c1[N+](=O)[O-] | inactive: -0.05%
44 | COc1ccc(OP(C)(=O)Nc2ccc(SC(F)(F)F)cc2)cc1 (centres undefined) | inactive: -7%
45 | CCOC(=O)c1ccc(NP(C)(=O)Oc2ccc(F)cc2)cc1 (centres undefined) | inactive: -8.07%
46 | COc1ccc2c(c1O)-c1c(O)c(OC)cc3c1[C@H](C2)[N+](C)(C)CC3.O=[N+]([O-])c1cc([N+](=O)[O-])c([O-])c([N+](=O)[O-])c1[O-] | inactive: -11.2%
47 | O=C(OCCN1CCN(CCOCc2ccccc2)CC1)C(O)(c1ccccc1)c1ccccc1 | inactive: -8.71%
48 | O=C(OC1CN2CCC1CC2)c1ccc([N+](=O)[O-])cc1 (centres undefined) | inactive: -3.47%
49 | CC(C)c1ccc(OP(C)(=O)Nc2ccc(SC(F)(F)F)cc2)cc1 (centres undefined) | inactive: 5.63%
50 | CP(=O)(Nc1ccccc1F)Oc1ccccc1 (centres undefined) | inactive: -2.17%
51 | Cc1cc(C)cc(OP(C)(=O)Nc2ccccn2)c1 (centres undefined) | inactive: -0.58%
52 | CP(=O)(Nc1cccc(Br)c1)Oc1ccccc1 (centres undefined) | inactive: -3.98%
53 | Cc1ccc(C)c(NP(C)(=O)Oc2ccccc2)c1 (centres undefined) | inactive: -1.04%
54 | Cc1cc(C)cc(OP(C)(=O)Nc2ccc(C)cc2C)c1 (centres undefined) | inactive: -4.95%
55 | CCOC(=O)c1ccc(NP(C)(=O)Oc2cc(C)cc(C)c2)cc1 (centres undefined) | inactive: -1.42%
56 | COc1ccccc1OP(C)(=O)Nc1cccc(Br)c1 (centres undefined) | inactive: -7.86%
57 | CC1=NCCc2c1[nH]c1ccccc21.O=[N+]([O-])c1cc([N+](=O)[O-])c(O)c([N+](=O)[O-])c1 | inactive: -6.61%
58 | O=C(O)c1cccc(Nc2c([N+](=O)[O-])cc([N+](=O)[O-])cc2[N+](=O)[O-])c1 | inactive: -11.6%
59 | CCCOc1ccc(NP(C)(=O)Oc2ccc(Cl)cc2)cc1 (centres undefined) | inactive: -4.76%
